Data set [1] concerns SKOV-3 human ovarian adenocarcinoma xenograft. Description: SK-OV-3 human ovarian xenograft antitumor efficacy. The following applies: SKOV-3 xenograft, single i.p. LD10 dose on d-1. Type of data set: in vivo, CB17 SCID mice. Background: Xenograft models place foreign cells or tissue in a host animal.
In a further data set the test system is CB17 SCID mice. Description: Acute toxicity after single i.p. injection. The settings on record: observed 30 days.

For orientation: LD50 means the dose at which mortality reaches 50%. A lower LD50 goes with greater toxicity.

`O=C(O)CCOc1ccc(N(CCCl)CCCl)cc1`: in data set [1], the “Cures (mice alive for 120 days after tumor inoculation)” value was 0/5, the “MST (mean survival time)” value amounted to 47.7 ± 1.5 days, the “T/C% (mean survival time of treated versus saline controls)” value is 117.2% and the “TI% (Tumor Inhibition)” value is 12.0%. In addition, in the data set with CB17 SCID mice, the LD10 was 15 mg/kg and the LD50 was determined as 20 mg/kg.

The values are drawn from PMC7281072 (Cancers, 2020).
